Activity change, negative = inhibition data for 26 compounds are collected here from PubChem BioAssay (Tox21).

Amino acid sequences for entries named in this document (tags omitted).
UniProt P22303, whole entry: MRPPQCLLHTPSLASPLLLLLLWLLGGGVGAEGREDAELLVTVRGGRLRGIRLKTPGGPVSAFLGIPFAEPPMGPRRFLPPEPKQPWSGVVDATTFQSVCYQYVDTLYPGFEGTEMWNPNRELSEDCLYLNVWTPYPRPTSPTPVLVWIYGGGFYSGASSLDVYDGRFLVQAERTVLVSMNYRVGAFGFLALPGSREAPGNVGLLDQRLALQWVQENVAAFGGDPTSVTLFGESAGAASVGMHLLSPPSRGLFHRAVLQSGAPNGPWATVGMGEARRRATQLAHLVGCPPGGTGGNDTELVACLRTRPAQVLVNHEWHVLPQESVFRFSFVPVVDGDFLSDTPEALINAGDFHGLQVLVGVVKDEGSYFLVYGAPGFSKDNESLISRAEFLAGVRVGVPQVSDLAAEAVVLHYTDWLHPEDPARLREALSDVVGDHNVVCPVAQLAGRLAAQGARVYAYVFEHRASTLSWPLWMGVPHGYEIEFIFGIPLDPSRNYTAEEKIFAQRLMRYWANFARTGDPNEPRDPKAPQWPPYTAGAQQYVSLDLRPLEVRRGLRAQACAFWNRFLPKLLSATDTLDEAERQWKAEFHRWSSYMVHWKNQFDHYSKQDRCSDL

Where “and” joins values, the source holds several entries; their conditions need not be identical. Identical values can stand only once. Only a part is listed here, and it is no random draw. Calls of active or inactive are those of the source. Calls follow the shape of the full dose curve.
% is scaled to controls: 0 for no effect and ±100 for the full control effect.

For the first assay, the target named is Acetylcholinesterase (Homo sapiens) (UniProt P22303). Briefly: Acetylcholinesterase (AChE) small molecule antagonists: enzyme-based qHTS assay with human liver microsomes (AID 1347399). Also: nearly all actives have a fitted effect of over 60% in size. To be noted: at 53 µM (top of the series). The text has this: National Center for Advancing Translational Sciences [NCATS]
Division of Preclinical Innovation [DPI]
U.S. Environmental Protection Agency [EPA]
National Institutes of Environmental Health Sciences [NIEHS]
National Toxicology Program [NTP]
U.S. Food and Drug Administration [FDA]
Acetylcholinesterase (AChE) is the primary cholinesterase in the body that hydrolyzes a key neurotransmitter, acetylcholine. Inhibition of AChE activity can lead to neurotoxicity. The known inhibitors include organophosphorous pesticides (OP), chemical warfare agents, drugs, and various phytochemicals. Some compounds like OP compounds may need metabolic activation to be active AChE inhibitors. The cytochrome P450 (CYP) superfamily in the human microsomes is responsible for the metabolism of various endogenous and exogenous compounds.
An enzyme-based assay with the recombinant human AChE, human liver microsomes and Amplite Colormetric acetylcholinesterase assay kit (AAT Bioquest, Sunnyvale, CA) was used to evaluate compounds in the Tox21 10K library that need metabolic activation for AChE inhibition. The assay uses 5, 5-dithiobis-(2-nitrobenzoic acid) (DTNB) to quantify the thiocholine produced from the hydrolysis of acetylthiocholine by AChE.
Tox21 Assay Protocol Summary:
For the enzyme-based AChE assay with microsomes addition, a mixture of human AChE (50 mU/mL) and human liver microsomes (0.25 mg/mL, final concentration) in 3 uL/well was dispensed into black, clear-bottom 1536-well plates using a Multidrop Combi dispenser (Thermo Scientific, MA). Then, 23 nL of compound or DMSO (vehicle control) was transferred into the assay plates by a Pintool Station (Wako Automation, CA). Following compound addition, 1 uL of NADPH (0.25 mg/mL, final concentration) was transferred to the assay plate by a Flying Reagent Dispenser (Beckman Coulter, CA). The plates were incubated for 30 min at 37 C and 5% CO2, followed by the addition of 4 uL of colorimetric detection cocktail solution (DTNB, acetylthiocholine) into each well using a Flying Reagent Dispenser (Beckman Coulter, CA) and then 10 min incubation at room temperature.
(In general: qHTS replaces the single test concentration by a dilution series.)
Turning to `OCCSCCO`, the activity change, negative = inhibition was inactive: 1.77%.

Staying with this assay, now noted: at 115 µM (top of the series).
With `OCCSCCO`, the activity change, negative = inhibition is inactive: 0.682%.

Staying with this assay, now noted: at 115 µM (top of the series) unless noted.
With `N#CBr`, the activity change, negative = inhibition was inactive: -1.13%. Consider `ClCCOP(OCCCl)OCCCl`, for which the activity change, negative = inhibition was inactive: -2.04% and inactive: -1.32%. Turning to `CCOP(=O)(Cl)Cl`, the activity change, negative = inhibition is inactive: -0.163% and inactive: 0.486%. On the same count and under the same terms, with `Cc1ccc([N+](=O)[O-])cc1[N+](=O)[O-]` the figure was inactive: 0% and inactive: -1.79%. As for `CCC(=O)N(c1ccccc1)C1CCNCC1`, the activity change, negative = inhibition is inactive: -0.371% [at 53 µM]. The same measure, in the same setting: then `CC(C)N(CCO)C(C)C`, with inactive: 0%; and `CCOC(=O)N1CCC(=O)CC1`, with inactive: -1% [at 53 µM]; and `O=[N+]([O-])[O-].[NH4+]`, with inactive: 0% and inactive: 0.97%. Still for that read-out and setting: then `COP(C)(=O)OC`, with inactive: -0.218% and inactive: -0.448%; and `Cc1ccc([N+](=O)[O-])c([N+](=O)[O-])c1`, with inactive: -1.79% and inactive: -2.47%; and `O=[N+]([O-])c1cccc([N+](=O)[O-])c1`, with inactive: 31.7%.

Turning to `CCOP(=O)(CC)OCC`, the activity change, negative = inhibition was inactive: -1.68%. The same measure, in the same setting: then `COc1ccc([N+](=O)[O-])cc1[N+](=O)[O-]`, with inactive: 0%; and `N=C(N)N[N+](=O)[O-]`, with inactive: -0.297%. On the same count and under the same terms, then `CC(C)OP(OC(C)C)OC(C)C`, with inactive: -0.103%; and `CN(C)CCCl`, with inactive: 0.162%; and `[NH4+].[O-][Cl+3]([O-])([O-])[O-]`, with inactive: -0.163% and inactive: 1.4%.

Take `Nc1cc([N+](=O)[O-])cc([N+](=O)[O-])c1O`: the activity change, negative = inhibition was inactive: 17.2%. On the same count and under the same terms, with `C/C1=C2N=C(/C=C3N=C(/C(C)=C4\[N-][C@@](C)([C@@H]5N=C1[C@](C)(CCC(=O)NC[C@@H](C)OP(=O)([O-])O[C@H]1[C@@H](O)[C@@H](n6cnc7cc(C)c(C)cc76)O[C@@H]1CO)[C@H]5CC(N)=O)[C@@](C)(CC(N)=O)[C@@H]4CCC(N)=O)[C@@](C)(CC(N)=O)[C@@H]\3CCC(N)=O)C(C)(C)[C@@H]/2CCC(N)=O.[C-]#N.[Co+3]` the figure was inactive: -0.175% [at 53 µM].

As to `CP(=O)(O)OCCC[Si](O)(O)O`, the activity change, negative = inhibition is inactive: 0.163%. Take `CCN(CC)CCCl`: the activity change, negative = inhibition was inactive: 3.78%.

`ClCCNCCCl`: the activity change, negative = inhibition was inactive: -0.333%. Still for that read-out and setting: then `O=[N+]([O-])OCC(CO[N+](=O)[O-])(CO[N+](=O)[O-])CO[N+](=O)[O-]`, with inactive: -0.44%; and `Cc1c([N+](=O)[O-])cccc1[N+](=O)[O-]`, with inactive: 0.695% and inactive: -1.07%. Same read-out and setting: then `Cc1cccc([N+](=O)[O-])c1[N+](=O)[O-]`, with inactive: -5.3% [at 53 µM].
